Measured values taken from ChEMBL document CHEMBL1145498, “A systematic interaction map of validated kinase inhibitors with Ser/Thr kinases” (Proc Natl Acad Sci U S A, 2007).

Protein sequences, listed by entry. Tags and fused reporters are not part of them.
UniProt P50750, whole entry: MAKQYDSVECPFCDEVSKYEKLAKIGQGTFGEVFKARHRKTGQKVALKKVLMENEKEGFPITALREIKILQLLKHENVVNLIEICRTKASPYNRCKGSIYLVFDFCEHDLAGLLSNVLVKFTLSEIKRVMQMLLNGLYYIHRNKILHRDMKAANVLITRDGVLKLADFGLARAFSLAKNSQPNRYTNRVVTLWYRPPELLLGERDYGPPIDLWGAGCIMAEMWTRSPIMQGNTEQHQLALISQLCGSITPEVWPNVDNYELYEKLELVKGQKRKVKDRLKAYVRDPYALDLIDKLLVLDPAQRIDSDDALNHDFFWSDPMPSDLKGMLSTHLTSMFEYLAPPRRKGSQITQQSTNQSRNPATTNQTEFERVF
UniProt Q15746, whole entry: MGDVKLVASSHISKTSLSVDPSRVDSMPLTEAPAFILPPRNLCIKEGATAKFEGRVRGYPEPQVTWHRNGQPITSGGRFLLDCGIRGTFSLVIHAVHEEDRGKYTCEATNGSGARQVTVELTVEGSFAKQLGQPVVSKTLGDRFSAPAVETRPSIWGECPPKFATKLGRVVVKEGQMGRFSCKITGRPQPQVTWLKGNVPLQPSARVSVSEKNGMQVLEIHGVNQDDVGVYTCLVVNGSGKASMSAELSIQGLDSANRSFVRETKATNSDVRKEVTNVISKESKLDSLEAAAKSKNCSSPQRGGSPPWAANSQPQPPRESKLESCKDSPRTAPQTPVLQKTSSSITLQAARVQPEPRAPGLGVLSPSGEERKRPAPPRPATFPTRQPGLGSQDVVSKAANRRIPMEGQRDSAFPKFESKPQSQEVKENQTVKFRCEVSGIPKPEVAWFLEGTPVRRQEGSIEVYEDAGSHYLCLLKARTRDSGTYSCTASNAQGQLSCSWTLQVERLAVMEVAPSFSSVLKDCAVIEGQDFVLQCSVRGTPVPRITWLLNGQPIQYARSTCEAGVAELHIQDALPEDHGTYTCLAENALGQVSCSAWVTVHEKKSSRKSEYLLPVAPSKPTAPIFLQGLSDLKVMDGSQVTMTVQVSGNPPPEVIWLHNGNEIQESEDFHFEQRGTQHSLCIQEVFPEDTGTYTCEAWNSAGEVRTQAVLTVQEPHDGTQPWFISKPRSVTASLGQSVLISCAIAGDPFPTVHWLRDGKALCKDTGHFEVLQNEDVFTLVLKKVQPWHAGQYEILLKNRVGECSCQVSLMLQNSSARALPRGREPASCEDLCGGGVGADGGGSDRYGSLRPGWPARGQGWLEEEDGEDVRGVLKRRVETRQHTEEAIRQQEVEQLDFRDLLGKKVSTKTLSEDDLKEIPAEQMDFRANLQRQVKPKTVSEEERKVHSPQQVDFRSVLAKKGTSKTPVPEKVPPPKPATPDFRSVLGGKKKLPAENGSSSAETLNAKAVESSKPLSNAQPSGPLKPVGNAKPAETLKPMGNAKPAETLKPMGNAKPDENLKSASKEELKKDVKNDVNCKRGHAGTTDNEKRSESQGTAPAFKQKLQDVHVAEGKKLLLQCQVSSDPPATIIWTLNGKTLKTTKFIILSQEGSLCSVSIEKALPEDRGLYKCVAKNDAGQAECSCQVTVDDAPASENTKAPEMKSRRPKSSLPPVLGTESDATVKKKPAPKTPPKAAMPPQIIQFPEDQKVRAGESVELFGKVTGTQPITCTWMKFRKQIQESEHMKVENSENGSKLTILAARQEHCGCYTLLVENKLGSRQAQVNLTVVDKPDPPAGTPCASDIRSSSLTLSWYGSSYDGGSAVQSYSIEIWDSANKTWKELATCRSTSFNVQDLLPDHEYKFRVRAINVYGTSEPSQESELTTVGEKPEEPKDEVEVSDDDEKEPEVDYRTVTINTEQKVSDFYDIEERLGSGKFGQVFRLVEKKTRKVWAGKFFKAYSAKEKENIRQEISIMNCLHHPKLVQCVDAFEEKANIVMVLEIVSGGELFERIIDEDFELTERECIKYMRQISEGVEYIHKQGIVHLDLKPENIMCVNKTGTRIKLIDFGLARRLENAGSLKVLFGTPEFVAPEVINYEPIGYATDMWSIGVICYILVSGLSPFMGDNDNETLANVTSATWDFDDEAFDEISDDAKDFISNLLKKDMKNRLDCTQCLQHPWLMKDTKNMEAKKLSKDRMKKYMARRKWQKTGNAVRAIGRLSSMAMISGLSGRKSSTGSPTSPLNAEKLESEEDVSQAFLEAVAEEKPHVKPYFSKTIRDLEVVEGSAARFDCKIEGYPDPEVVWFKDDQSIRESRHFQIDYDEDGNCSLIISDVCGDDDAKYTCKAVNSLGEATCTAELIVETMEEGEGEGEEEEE

Columns and labels:
[1] = target: Cyclin-dependent kinase 9 (Homo sapiens, UniProt P50750); assay: Inhibition of Cdk9
[2] = target: Myosin light chain kinase, smooth muscle (Homo sapiens, UniProt Q15746); assay: Inhibition of human myosin light chain kinase

Compound | IC50 [1] [nM] | Ki [2] [nM]
CC(C)c1nn(-c2c(Cl)cccc2Cl)c2nc(Cc3ccc(OCCO)cc3)[nH]c(=O)c12 | 9 | 
COC(=O)[C@]1(O)C[C@@H]2O[C@@]1(C)n1c3ccccc3c3c4c(c5c6ccccc6n2c5c31)C(=O)NC4 (single isomer, unassigned) |  | 17
